# Assay results as given in ChEMBL document CHEMBL1152120, “RP 73163: A bioavailable alkylsulphinyl-diphenylimidazole ACAT inhibitor” (Bioorg Med Chem Lett, 1996).
# Legend:
# [1] = biological target: T1, Sterol O-acyltransferase 1 (Rattus norvegicus, UniProt O70536); assay: biochemical; format: tissue-based, Liver
# T1 sequence (O70536 whole entry): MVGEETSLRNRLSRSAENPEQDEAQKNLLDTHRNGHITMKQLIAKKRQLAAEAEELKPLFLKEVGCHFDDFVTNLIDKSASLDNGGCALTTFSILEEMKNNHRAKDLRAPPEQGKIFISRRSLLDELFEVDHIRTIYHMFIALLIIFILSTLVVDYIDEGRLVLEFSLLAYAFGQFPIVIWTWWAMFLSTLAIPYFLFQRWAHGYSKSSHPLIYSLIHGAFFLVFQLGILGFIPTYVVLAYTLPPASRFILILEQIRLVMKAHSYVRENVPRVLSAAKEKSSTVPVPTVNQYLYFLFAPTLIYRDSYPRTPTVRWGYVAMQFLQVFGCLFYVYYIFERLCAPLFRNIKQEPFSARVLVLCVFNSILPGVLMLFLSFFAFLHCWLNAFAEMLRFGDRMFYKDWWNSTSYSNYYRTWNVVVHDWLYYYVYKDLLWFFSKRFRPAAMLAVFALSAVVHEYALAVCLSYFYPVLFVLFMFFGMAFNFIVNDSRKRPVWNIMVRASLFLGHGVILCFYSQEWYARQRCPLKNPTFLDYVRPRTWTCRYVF
# [2] = biological target: T2, Acyl-CoA:cholesterol acyltransferase (Oryctolagus cuniculus, UniProt Q95214); assay: Compound was evaluated for inhibitory activity against Acyl coenzyme A:cholesterol acyltransferase in microsomes from rabbit adrenal.
# T2 sequence (Q95214 whole entry): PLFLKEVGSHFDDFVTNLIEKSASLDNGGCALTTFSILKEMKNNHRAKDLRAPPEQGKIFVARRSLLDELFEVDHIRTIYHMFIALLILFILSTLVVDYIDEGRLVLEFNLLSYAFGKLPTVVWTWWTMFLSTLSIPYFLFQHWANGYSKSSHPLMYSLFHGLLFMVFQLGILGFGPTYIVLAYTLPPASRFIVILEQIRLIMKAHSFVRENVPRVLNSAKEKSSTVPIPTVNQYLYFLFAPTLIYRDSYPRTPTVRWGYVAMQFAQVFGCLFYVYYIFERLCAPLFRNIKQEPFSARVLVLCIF
# [3] = biological target: T2, Acyl-CoA:cholesterol acyltransferase; assay: Compound was evaluated for inhibitory activity against Acyl coenzyme A:cholesterol acyltransferase in microsomes from rabbit intestine.
IC50 [1] [nM],IC50 [2] [nM],IC50 [3] [nM],SMILES
86,,,Cc1cc(C)n(CCCCC[S+]([O-])c2nc(-c3ccccc3)c(-c3ccccc3)[nH]2)n1 (stereo not drawn)
,80,108,Cc1cc(C)n(CCCCCSc2nc(-c3ccccc3)c(-c3ccccc3)[nH]2)n1
